Earlier results as cited in US12251363B2, “Compositions to enhance a non-surgical medical treatment” (Anti-Plasmin Technologies, LLC, priority 2017, dated 2025).

Conditions: dermal filler procedure; cited from earlier work

## NC[C@H]1CC[C@H](C(=O)O)CC1 [tranexamic acid]
  time in contact with hyaluronic acid material in the skin before tranexamic acid is metabolized by the body: no more than 18 hours
